Molecular target: CYP505A30 (Thermothelomyces thermophilus, UniProt G2QDZ3)
Conditions: read-out: apparent KD; hyperbolic dependence of kobs on [NADH], 10 °C

Chains of the proteins cited; added tags and fusions are not shown.
UniProt G2QDZ3, entry or part of it: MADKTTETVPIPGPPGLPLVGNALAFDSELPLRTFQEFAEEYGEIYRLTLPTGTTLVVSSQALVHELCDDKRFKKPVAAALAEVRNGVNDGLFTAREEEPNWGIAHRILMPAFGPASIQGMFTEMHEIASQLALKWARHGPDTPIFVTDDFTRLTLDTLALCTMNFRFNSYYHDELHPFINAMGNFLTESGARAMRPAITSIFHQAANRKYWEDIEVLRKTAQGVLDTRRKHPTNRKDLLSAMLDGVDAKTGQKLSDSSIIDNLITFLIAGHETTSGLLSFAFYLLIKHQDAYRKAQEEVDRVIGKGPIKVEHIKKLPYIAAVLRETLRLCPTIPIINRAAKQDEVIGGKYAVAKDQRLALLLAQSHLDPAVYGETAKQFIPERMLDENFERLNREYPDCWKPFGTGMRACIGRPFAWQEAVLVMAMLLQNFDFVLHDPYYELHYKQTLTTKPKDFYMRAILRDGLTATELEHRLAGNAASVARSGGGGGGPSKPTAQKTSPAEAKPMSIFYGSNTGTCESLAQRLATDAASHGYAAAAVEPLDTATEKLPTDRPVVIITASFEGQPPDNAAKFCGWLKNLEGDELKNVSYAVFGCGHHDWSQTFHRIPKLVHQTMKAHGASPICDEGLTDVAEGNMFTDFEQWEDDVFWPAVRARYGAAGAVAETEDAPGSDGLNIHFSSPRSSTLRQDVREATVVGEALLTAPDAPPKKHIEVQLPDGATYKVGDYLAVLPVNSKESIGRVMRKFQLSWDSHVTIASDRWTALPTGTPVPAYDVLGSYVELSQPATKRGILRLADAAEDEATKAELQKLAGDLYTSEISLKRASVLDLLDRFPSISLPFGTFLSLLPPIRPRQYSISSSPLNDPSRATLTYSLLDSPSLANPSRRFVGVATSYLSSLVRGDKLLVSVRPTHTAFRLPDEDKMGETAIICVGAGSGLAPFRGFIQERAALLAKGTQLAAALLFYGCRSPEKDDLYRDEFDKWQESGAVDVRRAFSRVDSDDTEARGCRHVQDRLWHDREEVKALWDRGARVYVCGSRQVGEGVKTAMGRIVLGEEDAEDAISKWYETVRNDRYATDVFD

NC(=O)C1=CN([C@@H]2O[C@H](COP(=O)(O)OP(=O)(O)OC[C@H]3O[C@@H](n4cnc5c(N)ncnc54)[C@H](O)[C@@H]3O)[C@@H](O)[C@H]2O)C=CC1 [NADH, reduced nicotinamide adenine dinucleotide]
Kd: 816 ± 113 µM
